# Publication PMC10112521, “High-throughput AR dimerization assay identifies androgen disrupting chemicals and metabolites” (Frontiers in Toxicology, 2023)
# Amino acid sequences for entries named in this document (tags omitted). A change or cut given only in a name is not applied to a line headed by its entry.
# UniProt P10275: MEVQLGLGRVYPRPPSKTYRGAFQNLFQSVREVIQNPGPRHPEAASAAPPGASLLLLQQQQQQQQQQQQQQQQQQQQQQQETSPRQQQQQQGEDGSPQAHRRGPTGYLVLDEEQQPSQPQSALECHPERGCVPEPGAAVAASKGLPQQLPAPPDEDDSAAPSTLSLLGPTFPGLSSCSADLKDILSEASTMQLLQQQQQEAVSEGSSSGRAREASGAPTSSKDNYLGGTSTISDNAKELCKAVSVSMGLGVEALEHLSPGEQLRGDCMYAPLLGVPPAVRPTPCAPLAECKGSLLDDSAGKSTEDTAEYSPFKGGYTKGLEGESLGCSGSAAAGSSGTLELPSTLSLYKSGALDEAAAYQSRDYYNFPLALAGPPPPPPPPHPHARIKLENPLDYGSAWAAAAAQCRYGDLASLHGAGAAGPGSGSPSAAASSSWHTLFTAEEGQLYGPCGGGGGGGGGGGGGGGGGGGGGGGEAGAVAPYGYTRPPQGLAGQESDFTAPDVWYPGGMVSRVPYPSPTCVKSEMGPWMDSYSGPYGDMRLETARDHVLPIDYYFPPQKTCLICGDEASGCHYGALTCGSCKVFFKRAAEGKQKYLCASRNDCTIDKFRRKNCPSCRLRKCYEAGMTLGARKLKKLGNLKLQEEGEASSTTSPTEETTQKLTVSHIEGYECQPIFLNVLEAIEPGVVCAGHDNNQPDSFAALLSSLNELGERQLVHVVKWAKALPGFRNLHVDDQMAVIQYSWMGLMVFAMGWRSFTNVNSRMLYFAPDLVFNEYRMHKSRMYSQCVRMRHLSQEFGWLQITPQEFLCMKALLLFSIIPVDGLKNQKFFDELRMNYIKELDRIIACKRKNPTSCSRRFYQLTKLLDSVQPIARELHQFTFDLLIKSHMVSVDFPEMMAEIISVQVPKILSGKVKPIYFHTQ
# Target: human AR (Homo sapiens, UniProt P10275)
# Test: AR2 assay, antagonist mode: disruption of R1881 (10 nM)-induced AR homodimerization in HepG2-AR2 cells
compound,measurement,value
CCC(=O)O[C@H]1CC[C@H]2[C@@H]3CCC4=CC(=O)CC[C@]4(C)[C@H]3CC[C@]12C [Testosterone propionate],activity call in antagonist mode,false positives
